One test addresses T1, HA-MOR1D (Mus musculus, UniProt P42866).
T1 construct: expressed in transfected cells
Briefly: Receptor internalization assay (ELISA, immunofluorescence staining) in HEK 293 cells: MOR1D. The test is classed as cell-based. The note with it: HEK 293 cells expressing MOR1D, or MOR1D and GRPR; agonist 1 μM. Background: ELISA stands for enzyme-linked immunosorbent assay.

The chains behind the UniProt entries cited, without tags or fusion partners. Residues count along the entry.
UniProt P42866, 1-393 isoform P42866-9: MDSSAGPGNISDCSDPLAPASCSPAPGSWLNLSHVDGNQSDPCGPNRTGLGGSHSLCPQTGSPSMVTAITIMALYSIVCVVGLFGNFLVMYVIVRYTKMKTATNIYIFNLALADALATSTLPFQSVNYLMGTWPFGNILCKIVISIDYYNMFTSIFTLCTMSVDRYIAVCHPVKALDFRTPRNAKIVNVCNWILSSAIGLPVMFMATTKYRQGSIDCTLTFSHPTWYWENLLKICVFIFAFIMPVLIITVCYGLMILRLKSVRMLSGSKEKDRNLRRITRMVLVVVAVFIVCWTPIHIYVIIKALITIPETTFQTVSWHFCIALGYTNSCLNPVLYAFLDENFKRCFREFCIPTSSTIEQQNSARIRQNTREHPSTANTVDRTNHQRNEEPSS
UniProt P42866, whole entry: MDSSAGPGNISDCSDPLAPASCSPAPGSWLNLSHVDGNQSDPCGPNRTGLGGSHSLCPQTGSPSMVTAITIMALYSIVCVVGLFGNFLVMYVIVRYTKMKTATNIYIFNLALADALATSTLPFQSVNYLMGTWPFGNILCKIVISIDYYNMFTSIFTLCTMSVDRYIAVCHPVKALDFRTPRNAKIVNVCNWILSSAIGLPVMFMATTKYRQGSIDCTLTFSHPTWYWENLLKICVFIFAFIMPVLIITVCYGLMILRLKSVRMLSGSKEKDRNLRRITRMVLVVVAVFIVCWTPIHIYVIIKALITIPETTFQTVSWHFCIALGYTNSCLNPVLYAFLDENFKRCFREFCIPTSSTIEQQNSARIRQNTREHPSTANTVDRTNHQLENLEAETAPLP

Another test addresses T2, HA-MOR1 (Mus musculus, UniProt P42866).
T2 construct: expressed in transfected cells
Briefly: Receptor internalization assay (ELISA, immunofluorescence staining) in HEK 293 cells: MOR1. Type of test: cell-based. The note with it: HEK 293 cells expressing MOR1 only, or MOR1 and GRPR; agonist 1 μM.

Entries after “also recorded” stand apart in the source; their conditions may differ.

Regarding `CN1CC[C@]23c4c5ccc(O)c4O[C@H]2[C@@H](O)C=C[C@H]3[C@H]1C5` [morphine], the “agonist-induced MOR1D internalization” value at HA-MOR1D was “significant MOR1D internalization; also recorded: endocytosis of HA-MOR1D”. For the same molecule, on HA-MOR1, the “agonist-induced MOR1 internalization” value was “no internalization of HA-MOR1; also recorded: but not HA-MOR1”.

The values are drawn from patent publication US8957024B2, “Composition and methods for reducing opioid-induced pruritus” (priority 2011, dated 2015).
